Earlier results in patent US20210355435A1, “CULTURE MEDIUM COMPRISING KETO ACIDS” (Evonik Operations GmbH, priority 2018, published 2021).

System: CHO and Hybridoma cell lines
Conditions: AKG added to commercially available media; cited from earlier work

O=C(O)CCC(=O)C(=O)O [AKG, alpha-ketoglutaric acid]
increase of Integrated Viable Cell Density (IVCD): more than 50%
increase of maximum Viable Cell Density (VCD): more than 30%
